# Binding of CDR-mutated scFvs to a peptide of the spike HR2 region

All variants were tested on one target, the spike HR2 peptide PDVDLGDISGINAS (SARS-CoV-2).

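The starting antibody came from a phage panning campaign against this peptide. AAYL49 was designed without a model: most single CDR substitutions and a random sample of double and triple ones. The scFvs were displayed on barcoded MATa yeast, the peptide on MATalpha yeast. Binding brings cells together so that they mate, and sequencing counts the barcode pairs among the diploids. Each replicate has its own calibration line, from reference interactions of the BCL2 family. The assay was run in three technical replicates.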

Parent: Ab-14, a human scFv built as VH, a (GGGGS)3 linker, VL. Only the CDRs of the heavy chain vary.
VH: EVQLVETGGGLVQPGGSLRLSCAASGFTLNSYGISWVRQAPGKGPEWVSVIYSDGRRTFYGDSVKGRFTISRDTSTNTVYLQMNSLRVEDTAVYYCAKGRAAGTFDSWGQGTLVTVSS
VL: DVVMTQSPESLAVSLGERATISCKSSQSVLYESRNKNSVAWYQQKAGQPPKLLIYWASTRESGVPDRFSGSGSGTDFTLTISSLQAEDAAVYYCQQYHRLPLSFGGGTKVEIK

Positions count from residue 1 of the parent VH; G61E puts E in place of G.
This list gathers variants with a substitution at F105 (VH, numbered from residue 1).
Values are apparent Kd, the geometric mean of the replicates that gave a signal; lower means stronger binding.
"nd" marks a missing value. The strain was present, yet no cells mated with the target were sequenced in any replicate, which points to weak or no binding.

changes	Kd	replicates with signal	empty controls
G61E D62G F105R	3.3 µM	1/3	0/9
S35Y G55V F105E	12 µM	2/3	2/9
I51S F105E	150 µM	2/3	4/9
A101W F105G	4.3 nM	3/3	3/9
L29Y D54T F105Y	23 µM	1/3	1/9
F27V Y52P F105E	7.7 µM	2/3	3/9
G61C V64S F105M	nd	0/3	0/9
A101R T104G F105W	6.0 µM	1/3	2/9
S35R S53W F105T	120 µM	1/3	2/9
G26N S31C F105T	2.4 µM	1/3	2/9
Y52H A102R F105M	nd	0/3	0/9
R57A D62V F105A	13 µM	2/3	2/9
V50S D54T F105K	17 µM	2/3	2/9
G33F R100L F105R	nd	0/3	0/9
T104G F105A S107K	87 nM	3/3	2/9
D54L F105K	nd	0/3	0/9
V50Y T104A F105R	nd	0/3	2/9
G33M T104Q F105L	29 µM	3/3	8/9
V50I D54W F105L	nd	0/3	1/9
R57K F105V S107V	52 µM	3/3	1/9
Y32L A101N F105D	4.1 µM	1/3	2/9
F27I F105W S107L	42 nM	3/3	1/9
V64N R100M F105C	4.5 µM	1/3	4/9
F27S S31H F105D	46 µM	3/3	6/9
F27P R100N F105Y	52 µM	1/3	1/9
G26Y N30M F105I	27 µM	1/3	2/9
I34H T58A F105A	nd	0/3	2/9
D54Y G61T F105I	nd	0/3	0/9
T28E R57M F105Y	nd	0/3	0/9
F27D Y60M F105R	1.2 µM	1/3	0/9
S35T F105S S107P	7.1 µM	1/3	0/9
I34E F105W	nd	0/3	0/9
S31I I34M F105C	32 nM	3/3	3/9
Y32T S63N F105L	79 µM	2/3	2/9
S63F F105N S107H	nd	0/3	0/9
G26T N30C F105D	nd	0/3	0/9
S35I T104G F105R	nd	0/3	4/9
D54F F59Y F105T	nd	0/3	0/9
F105K	3.6 µM	3/3	3/9
S53V D54S F105A	380 µM	1/3	1/9
I51E G99F F105I	390 nM	1/3	0/9
R57N F59A F105Y	16 µM	1/3	0/9
I51G R57S F105I	nd	0/3	1/9
F27T S53Y F105R	nd	0/3	3/9
D54N T58S F105C	nd	0/3	1/9
G26C G33W F105A	950 nM	2/3	1/9
R57D T104Y F105L	nd	0/3	2/9
D54N G55Y F105H	nd	0/3	0/9
T28C Y52E F105L	nd	0/3	0/9
S53W S63L F105H	nd	0/3	0/9
I34G A102S F105Q	2.1 µM	2/3	0/9
T28N G61W F105M	140 µM	3/3	2/9
R100Q F105T	130 nM	3/3	5/9
R57S S63K F105S	2.3 µM	1/3	1/9
S31R A102T F105W	96 nM	3/3	1/9
L29T R56P F105K	nd	0/3	1/9
V64A F105I	81 nM	3/3	0/9
G55T R100N F105V	nd	0/3	0/9
T28M Y32P F105N	980 nM	1/3	0/9
F27K F105A	nd	0/3	2/9
I34P R56V F105P	nd	0/3	0/9
I34P S35V F105M	620 nM	1/3	0/9
F27P G103W F105G	39 nM	3/3	4/9
R56Y T58V F105T	880 nM	3/3	3/9
S53L G61K F105H	1.2 mM	1/3	3/9
G55P G99N F105T	34 µM	3/3	3/9
Y52T F105E	5.3 µM	1/3	1/9
G33S R57W F105N	220 µM	2/3	4/9
N30A F105V	30 µM	1/3	2/9
G33E F105E	nd	0/3	1/9
R56H S63D F105G	24 nM	3/3	3/9
A101L F105R D106K	nd	0/3	0/9
F27V V50P F105C	nd	0/3	0/9

Top 11 of the variants detected in all replicates, tightest first:

changes	Kd	replicates with signal	empty controls
A101W F105G	4.3 nM	3/3	3/9
R56H S63D F105G	24 nM	3/3	3/9
S31I I34M F105C	32 nM	3/3	3/9
F27P G103W F105G	39 nM	3/3	4/9
F27I F105W S107L	42 nM	3/3	1/9
V64A F105I	81 nM	3/3	0/9
T104G F105A S107K	87 nM	3/3	2/9
S31R A102T F105W	96 nM	3/3	1/9
R100Q F105T	130 nM	3/3	5/9
R56Y T58V F105T	880 nM	3/3	3/9
F105K	3.6 µM	3/3	3/9

Parent in this assay: reference entry 4.4 nM, copy in this library 13 µM (one replicate of three).
Background: pairings of library AAYL49 with three empty control strains gave a value in 15% of cases (median 11 µM, 5th percentile 680 nM). Values in that range, when seen in few replicates, are hard to tell from nonspecific mating. The control count says in how many pairings with the empty strains this scFv gave a signal.

From the AlphaSeq antibody data of Engelhart et al. 2022 (doi:10.1038/s41597-022-01779-4), copy in the FLAb collection.